{"sequences": {"note": "The chains behind the UniProt entries cited, without tags or fusion partners. Where a name states a change or a piece, a line headed by the entry shows the natural chain unless it says otherwise.", "UniProt O60674": "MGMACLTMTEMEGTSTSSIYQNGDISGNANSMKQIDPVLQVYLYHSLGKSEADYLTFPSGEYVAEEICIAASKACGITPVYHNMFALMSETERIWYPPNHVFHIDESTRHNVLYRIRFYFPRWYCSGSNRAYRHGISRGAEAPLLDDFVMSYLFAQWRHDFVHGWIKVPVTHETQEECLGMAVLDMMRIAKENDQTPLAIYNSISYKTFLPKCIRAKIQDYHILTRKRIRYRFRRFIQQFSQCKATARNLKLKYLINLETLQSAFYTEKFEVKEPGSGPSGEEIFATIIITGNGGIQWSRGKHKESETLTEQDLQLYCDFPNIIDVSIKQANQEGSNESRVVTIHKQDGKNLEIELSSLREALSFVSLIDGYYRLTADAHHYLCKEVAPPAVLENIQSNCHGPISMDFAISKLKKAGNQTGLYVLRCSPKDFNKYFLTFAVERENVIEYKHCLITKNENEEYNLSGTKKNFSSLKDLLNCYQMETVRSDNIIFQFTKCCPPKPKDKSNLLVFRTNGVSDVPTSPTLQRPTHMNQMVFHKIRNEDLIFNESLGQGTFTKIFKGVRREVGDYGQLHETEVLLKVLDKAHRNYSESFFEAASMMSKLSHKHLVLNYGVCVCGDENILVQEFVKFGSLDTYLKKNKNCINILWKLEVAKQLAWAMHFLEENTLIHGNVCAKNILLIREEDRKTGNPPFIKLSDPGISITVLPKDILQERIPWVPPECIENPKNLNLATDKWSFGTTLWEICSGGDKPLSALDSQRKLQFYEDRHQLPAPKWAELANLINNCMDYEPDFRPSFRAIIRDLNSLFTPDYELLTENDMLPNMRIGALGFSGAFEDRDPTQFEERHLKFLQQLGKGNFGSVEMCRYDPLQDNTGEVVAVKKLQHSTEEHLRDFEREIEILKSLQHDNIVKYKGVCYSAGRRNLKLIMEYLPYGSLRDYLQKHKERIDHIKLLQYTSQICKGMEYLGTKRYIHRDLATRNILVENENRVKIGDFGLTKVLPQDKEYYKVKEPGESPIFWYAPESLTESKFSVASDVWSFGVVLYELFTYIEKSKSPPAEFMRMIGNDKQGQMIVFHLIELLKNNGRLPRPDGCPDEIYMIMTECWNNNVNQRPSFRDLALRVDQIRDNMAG", "UniProt Q14164": "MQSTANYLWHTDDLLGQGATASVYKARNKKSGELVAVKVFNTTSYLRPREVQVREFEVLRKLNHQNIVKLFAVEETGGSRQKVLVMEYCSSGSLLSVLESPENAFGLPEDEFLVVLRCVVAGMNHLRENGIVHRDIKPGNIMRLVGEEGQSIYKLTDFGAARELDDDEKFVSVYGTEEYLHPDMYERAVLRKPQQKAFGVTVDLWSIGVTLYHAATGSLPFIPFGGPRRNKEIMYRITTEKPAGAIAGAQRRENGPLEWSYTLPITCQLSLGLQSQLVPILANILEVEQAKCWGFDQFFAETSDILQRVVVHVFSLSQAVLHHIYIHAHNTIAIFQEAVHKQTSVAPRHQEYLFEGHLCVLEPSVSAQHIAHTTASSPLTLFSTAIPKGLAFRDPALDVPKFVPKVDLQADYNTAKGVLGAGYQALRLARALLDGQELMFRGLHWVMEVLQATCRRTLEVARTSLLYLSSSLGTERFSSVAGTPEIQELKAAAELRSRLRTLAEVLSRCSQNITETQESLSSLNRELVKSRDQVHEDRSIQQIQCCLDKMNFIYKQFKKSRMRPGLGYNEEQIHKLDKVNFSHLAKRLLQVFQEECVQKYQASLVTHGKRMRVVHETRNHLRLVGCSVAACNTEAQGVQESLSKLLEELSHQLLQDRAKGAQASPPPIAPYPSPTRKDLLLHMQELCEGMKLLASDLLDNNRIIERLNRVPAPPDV", "UniProt Q9UHD2": "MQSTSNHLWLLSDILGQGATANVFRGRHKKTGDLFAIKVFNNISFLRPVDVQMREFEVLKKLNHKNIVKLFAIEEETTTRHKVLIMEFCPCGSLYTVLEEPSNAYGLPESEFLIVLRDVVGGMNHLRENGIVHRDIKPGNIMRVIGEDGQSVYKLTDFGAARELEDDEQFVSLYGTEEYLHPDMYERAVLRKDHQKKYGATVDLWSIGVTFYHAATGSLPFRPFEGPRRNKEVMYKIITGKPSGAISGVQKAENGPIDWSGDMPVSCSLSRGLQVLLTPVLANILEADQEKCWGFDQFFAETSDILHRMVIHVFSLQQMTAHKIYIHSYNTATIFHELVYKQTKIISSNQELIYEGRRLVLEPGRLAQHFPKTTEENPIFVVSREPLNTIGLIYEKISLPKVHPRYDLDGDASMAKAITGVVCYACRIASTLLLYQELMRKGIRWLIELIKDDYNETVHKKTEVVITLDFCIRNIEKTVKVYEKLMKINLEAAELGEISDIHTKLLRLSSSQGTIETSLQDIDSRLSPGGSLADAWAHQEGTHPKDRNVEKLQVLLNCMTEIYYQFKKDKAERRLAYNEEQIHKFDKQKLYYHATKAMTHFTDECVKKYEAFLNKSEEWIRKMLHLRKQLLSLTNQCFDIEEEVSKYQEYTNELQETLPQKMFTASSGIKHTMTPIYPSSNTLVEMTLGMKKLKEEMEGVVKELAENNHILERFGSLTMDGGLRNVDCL"}, "source": "patent US10253019B2", "about": "“Tank-binding kinase inhibitor compounds” (Gilead Sciences, Inc., priority 2014, dated 2019)", "key": {"hJAK2": {"biological_target": "hJAK2 (Homo sapiens (Human), UniProt O60674)", "assay": "hJAK2 LANCE TR-FRET enzymatic assay", "format": "biochemical", "conditions": "read-out: JAK2 IC50"}, "IKKε": {"biological_target": "IKKε (Homo sapiens (Human), UniProt Q14164)", "assay": "IKKε TR-FRET enzymatic assay", "format": "biochemical", "conditions": "read-out: IKKe IC50"}, "TBK1": {"biological_target": "TBK1 (Homo sapiens (Human), UniProt Q9UHD2)", "assay": "TBK1 TR-FRET enzymatic assay", "conditions": "read-out: TBK1 IC50"}}}
{"substance": "2-(((3R,4S)-4-fluoro-1-(2-hydroxyacetyl)pyrrolidin-3-yl)oxy)-5-(4-((4-(4-(oxetan-3-yl)piperazin-1-yl)phenyl)amino)-1,3,5-triazin-2-yl)benzonitrile [Example 101]", "values": [{"measurement": "IC50", "setting": "hJAK2", "result": 0.638, "unit": "µM"}, {"measurement": "IC50", "setting": "IKKε", "result": 0.026, "unit": "µM"}]}
{"substance": "2-(((3R,4S)-3-fluoro-1-((S)-pyrrolidine-2-carbonyl)piperidin-4-yl)oxy)-5-(4-((4-(4-(oxetan-3-yl)piperazin-1-yl)phenyl)amino)-1,3,5-triazin-2-yl)benzonitrile [Example 133]", "values": [{"measurement": "IC50", "setting": "TBK1", "result": 0.483, "unit": "µM"}]}
